Legend:
plasma proteins = assay type: in vitro ADME, human or mouse; settings: 2 μM in plasma, dialysis 4 h, 37 °C
WIL-FL* T46L/F49Y = WIL-FL* T46L/F49Y (Homo sapiens, UniProt P01721, form not given/K101C/T66L); settings: EC50 ratio WIL-FL vs WIL-FL T46L/F49Y
WIL-FL T46L/F49Y/C214S = assay: Protease sensitivity assay with destabilized WIL-FL T46L/F49Y/C214S; assay type: biochemical, human; settings: 10 μM stabilizer, 0.5% DMSO, proteinase K, 1 h, 37 °C; mean ± 1 SD
WIL-FL F98D = settings: Figure S5

Chains of the proteins cited; added tags and fusions are not shown. Residues count along the entry.
UniProt P01721, 20-117 T66L/K101C: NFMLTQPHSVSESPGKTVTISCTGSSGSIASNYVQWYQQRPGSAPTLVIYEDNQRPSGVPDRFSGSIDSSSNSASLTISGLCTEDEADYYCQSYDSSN

With `CCN(CC)c1ccc2c(C)cc(=O)oc2c1` [Compound 1] the “plasma protein binding (in words)” value (plasma proteins) was “very high plasma protein binding”.
`CCN(CC)c1ccc2c(C)c(CCOC(=O)NCc3cccc(-c4ccc[nH]c4=O)c3)c(=O)oc2c1` [Compound 27, 2-(7-(diethylamino)-4-methyl-2-oxo-2H-chromen-3-yl)ethyl (3-(2-oxo-1,2-dihydropyridin-3-yl)benzyl)carbamate] was tested, and the “potency increase with WIL-FL T46L/F49Y consensus sequence in comparison to parent WIL-FL sequence” value (WIL-FL* T46L/F49Y) was “up to a six-fold potency increase”.
For `CCN(CC)c1ccc2c(C)c(CCN3C(=O)NC4(CCN(c5ncccn5)CC4)C3=O)c(=O)oc2c1` [Compound 42, 3-(2-(7-(diethylamino)-4-methyl-2-oxo-2H-chromen-3-yl)ethyl)-8-(pyrimidin-2-yl)-1,3,8-triazaspiro[4.5]decane-2,4-dione], the “WIL-FL T46L/F49Y/C214S fold protection at 10 μM small molecule” value (WIL-FL T46L/F49Y/C214S) was under 0.01.
For `CCN(CC)c1ccc2c(C)c(CCN3C(=O)NC4(CCN(c5ncnc6[nH]ncc56)CC4)C3=O)c(=O)oc2c1` [Compound 44, 3-(2-(7-(diethylamino)-4-methyl-2-oxo-2H-chromen-3-yl)ethyl)-8-(1H-pyrazolo[3,4-d]pyrimidin-4-yl)-1,3,8-triazaspiro[4.5]decane-2,4-dione], the “WIL-FL T46L/F49Y/C214S fold protection at 10 μM small molecule” value (WIL-FL T46L/F49Y/C214S) was under 0.01.
With `CCN(CC)c1ccc2c(C)c(CCN3CC4(CCN(c5nccn6ccnc56)CC4)NC3=O)c(=O)oc2c1` [Compound 53, 3-(2-(7-(diethylamino)-4-methyl-2-oxo-2H-chromen-3-yl)ethyl)-8-(imidazo[1,2-a]pyrazin-8-yl)-1,3,8-triazaspiro[4.5]decan-2-one] the “proteinase K resistance provided to WIL-FL F98D” value (WIL-FL F98D) was “no appreciable proteinase K resistance”.

— publication PMC8428256 (Journal of medicinal chemistry, 2021)
